From ChEMBL document CHEMBL1155995, “Pyrrole[2,3-d]azepino compounds as agonists of the farnesoid X receptor (FXR)” (Bioorg Med Chem Lett, 2009)

Target: T1, Bile acid receptor (Homo sapiens, UniProt Q96RI1)
T1 sequence (Q96RI1 whole entry): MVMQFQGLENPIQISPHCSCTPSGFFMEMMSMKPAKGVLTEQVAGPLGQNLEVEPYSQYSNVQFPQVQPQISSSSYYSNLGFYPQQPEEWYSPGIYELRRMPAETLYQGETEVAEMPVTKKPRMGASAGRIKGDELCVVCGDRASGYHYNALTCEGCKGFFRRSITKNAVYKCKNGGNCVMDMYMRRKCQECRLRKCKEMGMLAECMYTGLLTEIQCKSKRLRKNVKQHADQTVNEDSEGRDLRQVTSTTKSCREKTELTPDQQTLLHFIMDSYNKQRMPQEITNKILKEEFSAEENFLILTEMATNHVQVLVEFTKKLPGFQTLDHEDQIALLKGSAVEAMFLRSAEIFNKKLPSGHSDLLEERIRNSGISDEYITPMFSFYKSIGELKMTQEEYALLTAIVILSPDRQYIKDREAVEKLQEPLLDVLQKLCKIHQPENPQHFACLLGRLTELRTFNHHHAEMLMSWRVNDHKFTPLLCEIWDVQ

Row | Structure (SMILES) | EC50
1 | CC(C)OC(=O)C1=CN(C(=O)C2CCCCC2)CC(C)(C)c2cc(C#N)[nH]c21 | 6.5 nM
2 | CC(C)OC(=O)C1=CN(C(=O)c2cccc(Cl)c2)CC(C)(C)c2cc(C#N)[nH]c21 | 12 nM
3 | CC(C)OC(=O)C1=CN(C(=O)c2ccc(C#N)cc2)CC(C)(C)c2cc(C#N)[nH]c21 | 35 nM
